Ab-91 heavy chain CDR variants: yeast mating affinities

Target peptide (SARS-CoV-2 spike, HR2 region): PDVDLGDISGINAS

Each scFv is VL, a 15-residue (Gly4Ser)3 linker, VH, as in the parent Ab-91, and differs from it in the CDRs of the heavy chain only.
VL: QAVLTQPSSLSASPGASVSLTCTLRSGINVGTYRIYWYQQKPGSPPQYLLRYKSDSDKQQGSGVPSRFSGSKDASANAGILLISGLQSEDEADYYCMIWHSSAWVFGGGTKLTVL
VH: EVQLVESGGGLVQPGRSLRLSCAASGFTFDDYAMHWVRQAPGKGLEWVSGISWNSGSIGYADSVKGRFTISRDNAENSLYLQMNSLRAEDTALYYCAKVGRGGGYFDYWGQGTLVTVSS

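In library AAYL51, one, two or three CDR residues were substituted; doubles and triples were drawn at random. The scFvs were displayed on barcoded MATa yeast, the peptide on MATalpha yeast. After mating in shaken culture at 30 °C for 16 h, diploids were selected and their barcode pairs sequenced. Read counts were normalised to the haploid input and turned into Kd by a linear fit to BCL2-family pairs of known affinity, for each replicate. Mating was done three times.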

Each variant is given by its three heavy chain CDRs, as the data file delimits them; those of the parent are GFTFDDYAMH, GISWNSGSIGYADSVK, VGRGGGYFDY. Every variant below is changed at G56 of the VH (sequential numbering). The Kd shown is the geometric mean over detected replicates; a lower Kd is a better binder. "nd" marks a missing value. The strain was present, yet no cells mated with the target were sequenced in any replicate, which points to weak or no binding. Empty control strains, which show no peptide, gave a signal in 21% of pairings with library AAYL51; the median was 34 µM and 95% of these signals were weaker than 1.8 µM. No background was subtracted. For each scFv, signals with the empty controls are counted beside the result.

CDR-H1	CDR-H2	CDR-H3	Kd	detected	control signals
GFTFDDYAMH	GISANSWSIGYADSVK	VGRGGGYFDY	28 nM	3 of 3	6 of 9
GFTFDDYAMH	GISWNSLSIGYADSVK	SGRGGGYFDY	nd	0 of 3	1 of 9
GFTFDDYAMH	GISWNSRSIGYADSVK	VGRGGGYFCY	nd	0 of 3	0 of 9
GFTFDDYAMH	GISWNSHSIGYADSNK	VGRGGGYCDY	nd	0 of 3	0 of 9
GFMFDDFAMH	GISWNSASIGYADSVK	VGRGGGYFDY	46 nM	3 of 3	5 of 9
GFTFDDYAML	GISWNSWSIGYADSVK	VTRGGGYFDY	nd	0 of 3	0 of 9
GFTFDDYASH	GISWNSQSIGYADSLK	VGRGGGYFDY	150 µM	2 of 3	2 of 9
GFTFIDYAVH	GISWNSVSIGYADSVK	VGRGGGYFDY	nd	0 of 3	0 of 9
GFTFDDYAMH	GISWNSLSIGYADLVK	VGRGCGYFDY	36 µM	3 of 3	8 of 9
GFTFDDYAMH	GISWNSMSIGVADSVK	VGRGGGYFWY	73 nM	3 of 3	2 of 9
GFTFDDPAMH	GISWNSLSICYADSVK	VGRGGGYFDY	nd	0 of 3	0 of 9
GFTFDDYAMH	GISWNSHKIGYADSVK	VGRGNGYFDY	120 µM	3 of 3	7 of 9
GFTFDDYAMH	GISWNSKSIGYADSVK	VYRLGGYFDY	160 µM	1 of 3	0 of 9
GFTFDDYAMH	GISWNSHSIGYADSVK	VGRGEGYFDY	nd	0 of 3	1 of 9
GFTFDTYAMH	GISWNSWSIVYADSVK	VGRGGGYFDY	38 µM	2 of 3	7 of 9
GFTFDDYAMH	GISWNCFSIGYLDSVK	VGRGGGYFDY	nd	0 of 3	0 of 9
GFTFDDYAVH	GISWNSMSIGYADSVK	VGRGGGYFDY	2.3 µM	3 of 3	4 of 9
GFTFDDYAMH	GQSWNSWAIGYADSVK	VGRGGGYFDY	nd	0 of 3	0 of 9
GFTFDDYAMH	GISWNSLGIGYADSVK	VKRGGGYFDY	260 nM	1 of 3	1 of 9
GFTFMDYAMH	GISWNSRSIGYASSVK	VGRGGGYFDY	5.2 µM	3 of 3	3 of 9
GFTFDVYAMH	GIHWNSLSIGYADSVK	VGRGGGYFDY	58 µM	1 of 3	4 of 9
GFTFDDYAMH	GISWNSYSICYHDSVK	VGRGGGYFDY	93 µM	1 of 3	3 of 9
GFTFDDYAMH	GISWNSPSIGYADSFK	VGRGGGYFWY	11 µM	1 of 3	0 of 9
GFTFDDYAMH	GIGWNSMSIGYADSVK	VGRGGGYFDY	nd	0 of 3	1 of 9
GFTFDDYAMH	GISWNSWSIGYANSVK	VLRGGGYFDY	nd	0 of 3	0 of 9
GFTFDDYAMH	GISWNSNSIGYADSGK	VGRGGGYFDA	16 nM	3 of 3	5 of 9
GFTFDDYAMH	GISWNSISIGYADSVK	VGRKGGVFDY	6.0 µM	2 of 3	2 of 9
GFWFDDYAMH	GISWNSVSIGYCDSVK	VGRGGGYFDY	7.2 µM	3 of 3	4 of 9
GFTFDSYAMH	GISWNSWSIGYADSVK	VGQGGGYFDY	nd	0 of 3	1 of 9
GFTFDDYAMH	GISWNSVSIGYADSVK	VGRGGFYFDP	120 µM	1 of 3	0 of 9
GFTFDDYAMH	GISWNSESIGYADTYK	VGRGGGYFDY	nd	0 of 3	0 of 9
GFTFDDYAMH	GISWNFCSAGYADSVK	VGRGGGYFDY	3.8 µM	1 of 3	0 of 9
GFTFDDYAMH	GISWNSSSIGYADSVK	VGRGGGYVDY	9.3 µM	1 of 3	0 of 9
GPTFDDYAMH	GQSWNSESIGYADSVK	VGRGGGYFDY	210 µM	3 of 3	4 of 9
GFTFDDEAMH	GISWNSSSIGYADSVK	PGRGGGYFDY	82 µM	3 of 3	6 of 9
GFTFDDYRMH	GISWNSSMIGYADSVK	VGRGGGYFDY	120 µM	3 of 3	4 of 9
GFTFDDYAMH	GISWNSRSIGYADSVK	AGRGGGLFDY	64 nM	3 of 3	4 of 9
GFTFDDYAMH	GGSWNSVSIGYADSVK	VGRGGGAFDY	3.2 µM	2 of 3	1 of 9
GFTFDDYAQH	GISWNSYSIGYADSVK	VGRGGGYFDY	16 nM	3 of 3	1 of 9
GFTFDDYAMT	GISWNSDSIGYADSVK	VGRLGGYFDY	nd	0 of 3	3 of 9
GFTFDDYAMA	GISWNSNSIGMADSVK	VGRGGGYFDY	55 µM	2 of 3	4 of 9
GNTFDDYAMH	AISWNSISIGYADSVK	VGRGGGYFDY	nd	0 of 3	1 of 9
GFTFDDDAMH	GISWNSISLGYADSVK	VGRGGGYFDY	51 µM	2 of 3	2 of 9
GFTFDDMAMH	GISWNSRSIGYADSVK	VQRGGGYFDY	120 µM	2 of 3	2 of 9
GFTFDDYAMH	GISWNSHSIGYAQSVK	VGRGGGYFDY	3.4 µM	3 of 3	2 of 9
GFTFDDYAMH	CISWNSASNGYADSVK	VGRGGGYFDY	65 µM	1 of 3	3 of 9
GFTFKDYAMH	GISWNSWSIGYADSVK	VGRGGGYFDY	14 nM	3 of 3	1 of 9
GFIFDDYAMH	GISWNSESIGYADSVK	VGRGGGMFDY	320 nM	3 of 3	1 of 9
GFTFDDYAMH	GFSWNSASIGYADSVK	VGRGGGYFDY	55 µM	1 of 3	2 of 9
GFTEDDYAMG	GISWNSASIGYADSVK	VGRGGGYFDY	190 µM	2 of 3	3 of 9
GFTFCDYAMH	GISWNSNSIGYADSSK	VGRGGGYFDY	4.8 µM	3 of 3	3 of 9
GFTFDDYAMH	GISWNSPSPGYADSWK	VGRGGGYFDY	40 µM	2 of 3	0 of 9
GFTFDDYAMH	GGSWNSPSIGYADSVK	VGRGGGYMDY	44 µM	1 of 3	2 of 9
GRTFDDYAMH	GISWNSWSIGYADSVK	VGRGGGYFDY	nd	0 of 3	1 of 9
GFTFDDYAMH	GISWNSFSIGYADSVK	VGRGGNYHDY	550 nM	3 of 3	2 of 9
GFTFDDYAMH	GISWNSFSIPYADSVK	VGRGGVYFDY	99 µM	3 of 3	4 of 9
GFTFWDYAMH	GISWNSCSIGYADSVK	VGRGGGYFVY	nd	0 of 3	0 of 9
GFTFDDYAMH	GISWNSISIGEADSVK	VGRGGGYHDY	nd	0 of 3	0 of 9
GFTFDDYACH	GISWNSQSIGYADSVK	VGCGGGYFDY	26 µM	3 of 3	4 of 9
GFTFDDYAMH	GISWNSPSIGYADSVK	VGRGGGYFDC	47 µM	2 of 3	2 of 9
GFTFDDYAMH	GISWNSESIGYADSVA	VGRGGGYFDY	1.0 µM	2 of 3	2 of 9
GFTFDDYAMH	GISANSHSIGYADSVK	VGRGGEYFDY	21 µM	1 of 3	2 of 9
GFTFDDNAMH	GISWNSASIGYADRVK	VGRGGGYFDY	580 nM	3 of 3	1 of 9
GFTFDDRAMH	GISWNSVSIGYHDSVK	VGRGGGYFDY	2.9 µM	1 of 3	1 of 9
GFTTDDIAMH	GISWNSYSIGYADSVK	VGRGGGYFDY	nd	0 of 3	0 of 9
GFTFDDYAMH	GISWNSCSIGYTDSVK	VGRGGGYFDY	1.6 µM	3 of 3	5 of 9
GFTFDDYAMH	MISWNSHSIGYADSVK	VGTGGGYFDY	nd	0 of 3	0 of 9
GFTFDDYAGH	GISWNSLSIGYADSVK	VGRGGGYEDY	nd	0 of 3	0 of 9
GFTFDDRAMH	GISWNSSSRGYADSVK	VGRGGGYFDY	45 µM	2 of 3	5 of 9
GFTPDDYAMH	GISWNSDSIGYADSVK	VGRNGGYFDY	1.0 mM	1 of 3	1 of 9
GFTFDDYGMH	GISWNSMSIGYADSVK	VGRGGGYFDY	1.4 nM	3 of 3	1 of 9
GFTFDDYHMH	GISWNSMSINYADSVK	VGRGGGYFDY	nd	0 of 3	0 of 9
GFTFDDYAMH	GISWNSKNIGYADSVK	VGRGGGQFDY	nd	0 of 3	0 of 9

Top 12 of the variants detected in all replicates, tightest first:

{"CDR-H1": "GFTFDDYGMH", "CDR-H2": "GISWNSMSIGYADSVK", "CDR-H3": "VGRGGGYFDY", "Kd": "1.4 nM", "detected": "3 of 3", "control signals": "1 of 9"}
{"CDR-H1": "GFTFKDYAMH", "CDR-H2": "GISWNSWSIGYADSVK", "CDR-H3": "VGRGGGYFDY", "Kd": "14 nM", "detected": "3 of 3", "control signals": "1 of 9"}
{"CDR-H1": "GFTFDDYAMH", "CDR-H2": "GISWNSNSIGYADSGK", "CDR-H3": "VGRGGGYFDA", "Kd": "16 nM", "detected": "3 of 3", "control signals": "5 of 9"}
{"CDR-H1": "GFTFDDYAQH", "CDR-H2": "GISWNSYSIGYADSVK", "CDR-H3": "VGRGGGYFDY", "Kd": "16 nM", "detected": "3 of 3", "control signals": "1 of 9"}
{"CDR-H1": "GFTFDDYAMH", "CDR-H2": "GISANSWSIGYADSVK", "CDR-H3": "VGRGGGYFDY", "Kd": "28 nM", "detected": "3 of 3", "control signals": "6 of 9"}
{"CDR-H1": "GFMFDDFAMH", "CDR-H2": "GISWNSASIGYADSVK", "CDR-H3": "VGRGGGYFDY", "Kd": "46 nM", "detected": "3 of 3", "control signals": "5 of 9"}
{"CDR-H1": "GFTFDDYAMH", "CDR-H2": "GISWNSRSIGYADSVK", "CDR-H3": "AGRGGGLFDY", "Kd": "64 nM", "detected": "3 of 3", "control signals": "4 of 9"}
{"CDR-H1": "GFTFDDYAMH", "CDR-H2": "GISWNSMSIGVADSVK", "CDR-H3": "VGRGGGYFWY", "Kd": "73 nM", "detected": "3 of 3", "control signals": "2 of 9"}
{"CDR-H1": "GFIFDDYAMH", "CDR-H2": "GISWNSESIGYADSVK", "CDR-H3": "VGRGGGMFDY", "Kd": "320 nM", "detected": "3 of 3", "control signals": "1 of 9"}
{"CDR-H1": "GFTFDDYAMH", "CDR-H2": "GISWNSFSIGYADSVK", "CDR-H3": "VGRGGNYHDY", "Kd": "550 nM", "detected": "3 of 3", "control signals": "2 of 9"}
{"CDR-H1": "GFTFDDNAMH", "CDR-H2": "GISWNSASIGYADRVK", "CDR-H3": "VGRGGGYFDY", "Kd": "580 nM", "detected": "3 of 3", "control signals": "1 of 9"}
{"CDR-H1": "GFTFDDYAMH", "CDR-H2": "GISWNSCSIGYTDSVK", "CDR-H3": "VGRGGGYFDY", "Kd": "1.6 µM", "detected": "3 of 3", "control signals": "5 of 9"}

Source: Engelhart et al. 2022 (doi:10.1038/s41597-022-01779-4), MIT Lincoln Laboratory and A-Alpha Bio; data file from the FLAb repository.